# Cneo AK release = causes C. neoformans cell lysis. lysis activity, % at 15 µM. AID 651654. adenylate kinase release luminescence, 4 h; normalised: neutral wells 0, clomiphene wells 100. 360,000 compounds, 0.2% hits;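 active means mean lysis activity across replicates of at least 80%, whatever share of replicates individually reach that level; inactive means mean lysis activity below 80%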
#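 read-out = cell lysis signal | test system = log-phase Cryptococcus neoformans yeast cells | input = cells at 5 × 10^6 per mL | medium = fresh YPD growth medium | signal = luminescent adenylate kinase detection reagent | timing = 4 h at 37 °C static, read 1 h later | dosing = single dose | controls = Clomiphene as positive lysis control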
# E-sel inducer = E-selectin induction on HUVECs. HUVEC E-selectin immunofluorescence imaging; normalized: neutral wells 0, TNF-alpha wells 100. P16581. AID 686992. 260,000 compounds, 0.37% hits. activation, % at 7.58 µM;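 active means mean E-selectin-positive cell signal at least 10% of the positive control, reached in at least 60% of replicates, without over 20% cell loss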
#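 Read-out: % PE-positive cells | Test system: HUVEC | Doses: One compound dose added by pin transfer | Buffer or medium: EGM-2 over gelatin coat | Signal: Immunofluorescence imaging | Benchmarks: TNF-alpha, DMSO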
# DENV2 CPE = protects cells from dengue virus 2 cytopathic effect | DENV2-infected cells, cytopathic effect rescue, plate reader | CPE inhibition, % at 9.99 µM | 350,000 compounds, 1.7% hits | AID 651640; in the data active means CPE inhibition above about 20%, passing the limit was not always enough; tested in BHK-21 cells;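 further: 0% = median of neutral control wells and 100% = median of positive control wells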
# UUG fidelity = alters start codon recognition fidelity in yeast; S. cerevisiae UUG-firefly luciferase reporter, luminescence/redox ratio; activity score, % at 18.7 µM; hit rate 0.13% among 350,000;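 active = replicate mean at a twofold rise or more, about +100% in these data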;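 also: firefly luciferase made from a UUG start codon reports start codon fidelity; reporter light over untreated wells divided by growth signal over untreated wells; some hits fall short of that in this replicate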
# * hit, by the source's call; . = no result; ! = repeats disagree. In the library only some 1.8% were active in any assay of this set; here they are far more common.
SMILES,Cneo AK release,E-sel inducer,DENV2 CPE,UUG fidelity
C[C@@H]1CN([C@@H](C)CO)C(=O)c2cc(C3=CCCC3)cnc2O[C@H]1CN(C)C(=O)NC1CCCC1,0,.,31*,9
COCc1cn(CC[C@H]2CC[C@@H](NC(=O)c3ccc(F)cc3)[C@@H](CO)O2)nn1,-2,0,-5,-6
C[C@@H]1CN([C@@H](C)CO)C(=O)c2cc(C3=CCCCC3)cnc2O[C@H]1CN(C)C(=O)Nc1cccc(F)c1,1,0,30*!,-2
C[C@H](CO)N1C[C@H](C)[C@@H](CN(C)C(=O)Nc2ccc(F)cc2)Oc2ncc(C3=CCCC3)cc2C1=O,-2,1,27*,1
CCNC(=O)C[C@H]1CC[C@H](NC(=O)C2CCC2)[C@H](CO)O1,-1,0,1,20
COCC(=O)N[C@H]1CC[C@@H](CC(=O)NCc2ccc(Cl)cc2)O[C@H]1CO,1,0,1,-6
C[C@H](CO)N1C[C@H](C)[C@@H](CN(C)C(=O)Cc2ccccc2)OCCCC[C@H](C)Oc2ccc(NS(C)(=O)=O)cc2C1=O,.,0,.,.
NC(c1csc(Nc2cc(NCc3ccco3)ncn2)n1)c1ccccc1Cl (centres undefined),2,0,69*,-20
CC(=O)/C(C#N)=C1\NC(=O)C(Cc2cc(Cl)ccc2Cl)S1 (centres undefined),-3,0,57*,-5
CCCCC1OC2(C)OC(=N)C1(C#N)C(C#N)(C#N)C2c1ccccc1 (centres undefined),.,.,73*,.
COc1ccc(NC(=O)N(C)C[C@H]2Oc3ccc(NC(=O)Nc4ccc(F)cc4)cc3C(=O)N([C@H](C)CO)C[C@H]2C)cc1,4,0,-12,13
COc1ccc(NC(=O)Nc2ccc3c(c2)C(=O)N([C@@H](C)CO)C[C@@H](C)[C@H](CN(C)C(=O)Nc2ccc(F)cc2)O3)cc1,32,0,21*,22
COc1ccc(NC(=O)Nc2ccc3c(c2)C(=O)N([C@@H](C)CO)C[C@H](C)[C@@H](CN(C)C)O3)cc1,0,41*,1,3
COc1ccc(NC(=O)Nc2ccc3c(c2)C(=O)N([C@@H](C)CO)C[C@@H](C)[C@@H](CN(C)C(=O)Nc2ccc(OC)cc2)O3)cc1,-1,0,26*,-6
C[C@@H]1CN([C@@H](C)CO)C(=O)c2cc(NC(=O)Nc3ccc(F)cc3)ccc2O[C@H]1CN(C)C,-1,-3,27*,7
C[C@@H]1CCCCO[C@@H](CN(C)S(=O)(=O)c2ccc(Cl)cc2)[C@H](C)CN([C@H](C)CO)C(=O)c2cc(NC(=O)Cc3ccccc3)ccc2O1,3,0,14,-3
CC(C)NC(=O)N(C)C[C@@H]1Oc2cc(C#Cc3cccc(F)c3)ccc2S(=O)(=O)N([C@H](C)CO)C[C@H]1C,-6,-1,-3,3
O=C(Nc1ccc(C(F)(F)F)cc1)N[C@H]1C=C[C@H](CC(=O)N2CCCCC2)O[C@@H]1CO,-1,0,-3,-8
C[C@@H]1CN([C@H](C)CO)C(=O)c2cc(NC(=O)C3CCCCC3)ccc2O[C@H]1CN(C)C(=O)Nc1ccc(F)cc1,3,-1,55*,-3
C[C@@H]1CN([C@@H](C)CO)C(=O)c2cc(NC(=O)C3CCCCC3)ccc2O[C@H]1CN(C)C(=O)Nc1ccc(F)cc1,0,-2,2,-9
CC(C)NC(=O)Nc1ccc2c(c1)C(=O)N([C@@H](C)CO)C[C@H](C)[C@H](CN(C)Cc1ccccc1)O2,-5,0,-8,-2
C[C@H]1CN([C@@H](C)CO)S(=O)(=O)c2ccc(C#Cc3cccc(F)c3)cc2O[C@@H]1CN(C)C(=O)NC1CCCCC1,102*,1,13,29
CCCC#Cc1ccc2c(c1)O[C@H](CN(C)C(=O)c1ccccc1F)[C@H](C)CN([C@H](C)CO)S2(=O)=O,7,0,2,-10
CC(C)CC#Cc1ccc2c(c1)O[C@H](CN(C)C(=O)c1ccccc1F)[C@@H](C)CN([C@@H](C)CO)S2(=O)=O,3,0,32*,-6
CC(C)CC#Cc1ccc2c(c1)O[C@H](CN(C)C(=O)c1cccc(F)c1)[C@@H](C)CN([C@@H](C)CO)S2(=O)=O,-1,-1,24*,-8
C[C@@H]1CN([C@@H](C)CO)S(=O)(=O)c2ccc(C#Cc3cccc(F)c3)cc2O[C@@H]1CN(C)C(=O)NC1CCCCC1,.,0,.,.
CC(C)CC#Cc1ccc2c(c1)O[C@H](CN(C)C(=O)c1cccc(F)c1)[C@@H](C)CN([C@H](C)CO)S2(=O)=O,-3,-1,-2,-6

# Profiles as entered above.
# CCCCC1OC2(C)OC(=N)C1(C#N)C(C#N)(C#N)C2c1ccccc1 (centres undefined) is listed as Cneo AK release: .; E-sel inducer: .; DENV2 CPE: 73*; UUG fidelity: .
# COc1ccc(NC(=O)Nc2ccc3c(c2)C(=O)N([C@@H](C)CO)C[C@@H](C)[C@@H](CN(C)C(=O)Nc2ccc(OC)cc2)O3)cc1 is listed as Cneo AK release: -1; E-sel inducer: 0; DENV2 CPE: 26*; UUG fidelity: -6
